Measured values: ChEMBL document CHEMBL3232920, “Targeting carnitine biosynthesis: discovery of new inhibitors against γ-butyrobetaine hydroxylase” (J Med Chem, 2014)

Sequences of proteins named here, by UniProt entry; tags and fusion partners are left off. A change or cut given only in a name is not applied to a line headed by its entry.
UniProt O75936: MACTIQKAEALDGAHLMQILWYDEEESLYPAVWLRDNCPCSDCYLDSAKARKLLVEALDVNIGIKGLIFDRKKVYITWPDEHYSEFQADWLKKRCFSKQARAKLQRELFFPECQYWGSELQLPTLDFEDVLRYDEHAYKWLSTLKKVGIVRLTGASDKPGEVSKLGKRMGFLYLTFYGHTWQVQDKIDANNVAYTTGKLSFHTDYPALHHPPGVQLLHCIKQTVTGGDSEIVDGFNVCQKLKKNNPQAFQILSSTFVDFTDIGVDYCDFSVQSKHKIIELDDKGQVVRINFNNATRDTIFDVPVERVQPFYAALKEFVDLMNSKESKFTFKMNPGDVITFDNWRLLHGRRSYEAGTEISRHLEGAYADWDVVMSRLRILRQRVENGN

Molecular target: Gamma-butyrobetaine dioxygenase (Homo sapiens, UniProt O75936)
Assay: Inhibition of human recombinant BBOX expressed in Saccharomyces cerevisiae AH22 assessed as formation of carnitine from gamma-butyrobetaine preincubated for 15 mins measured after 30 mins by UPLC-MS/MS analysis
Conditions: read-out: IC50(app)

C[N+](C)(CCBr)CCCC(=O)O
IC50: 1.2 µM
